## Yeast mating assay B: variants of the scFv Ab-14

Reference: Li et al. 2023, doi:10.1038/s41467-023-39022-2. File: FLAb, binding data.

Target peptide (SARS-CoV-2 spike, HR2 region): PDVDLGDISGINAS

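This is the validation round: designs drawn from the data on random variants, tested in the same kind of assay. Their group label is 14L_GP_Gibbs (GP: Gaussian process model; Gibbs: Gibbs sampling; a sequence that several methods proposed may carry one label only). The scFvs were displayed on barcoded MATa yeast, the peptide on MATalpha yeast. Binding brings cells together so that they mate, and sequencing counts the barcode pairs among the diploids. Scores were corrected for input abundance and mapped to Kd with protein pairs of known affinity run in the same pool. There are six technical replicates.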

Parent: Ab-14, a human scFv built as VH, a 15-residue (Gly4Ser)3 linker, VL. Only the CDRs of the light chain vary.
VH: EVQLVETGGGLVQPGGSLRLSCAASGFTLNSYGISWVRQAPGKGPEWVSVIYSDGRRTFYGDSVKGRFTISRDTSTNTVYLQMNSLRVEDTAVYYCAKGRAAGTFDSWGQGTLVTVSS
VL: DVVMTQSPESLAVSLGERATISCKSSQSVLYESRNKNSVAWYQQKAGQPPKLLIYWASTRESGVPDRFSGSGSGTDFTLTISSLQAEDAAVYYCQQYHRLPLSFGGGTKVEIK

Changes read parent residue, position, new residue, counted from the first residue of the VL shown.
Values are log10 of the apparent Kd in nM; lower means stronger binding.
A pair that was not seen in that replicate is written "nd"; this usually means weak binding, but a binder can also be missed.
Background: pairings of all light chain designs with three empty control strains gave a value in 4% of cases (median 2.64, 5th percentile 1.59). Values in that range, when seen in few replicates, are hard to tell from nonspecific mating. Also given: how often the same scFv was detected with the empty control strains, with their mean in brackets.

changes	log10 Kd (nM) by replicate	control signals
S25I/V29E/L30Y/S33D/N37M/W56S/T59Q/E61L	-0.08 / 0.01 / 0.10 / 0.01 / 0.16 / 0.15	1/18 (2.29)
S25M/S26A/S28G/V29W/L30M/N35W/W56N/T59V	0.26 / 0.19 / 0.13 / 0.04 / 0.05 / 0.11	0/18
K24L/S25I/V29E/Y31L/K36H/W56D/E61M/S62D	0.27 / 0.14 / 0.00 / 0.15 / 0.13 / 0.38	1/18 (2.42)
S25L/S26Q/L30E/E32Q/S33A/K36Q/W56S/E61L/S62H	0.28 / 0.32 / 0.21 / 0.55 / -0.04 / -0.14	0/18
S25L/S26H/N35H/W56G/T59Q	0.92 / 0.69 / 0.86 / 0.83 / 1.09 / 1.00	1/18 (4.32)
S25L/S26Q/Q27V/S28L/V29K/E32W/W56E	nd / 2.22 / 2.33 / 2.25 / 3.74 / 3.10	2/18 (2.59)
S25L/S26M/Q27Y/V29W/L30P/Y31G/W56D/E61S	0.19 / -0.08 / 0.13 / 0.37 / -0.08 / 0.17	0/18
S25V/S26F/Q27P/V29G/Y31G/E32L/W56D	0.11 / -0.07 / -0.02 / -0.05 / -0.10 / -0.01	1/18 (2.57)
S25Q/V29G/L30M/Y31M/K36Q/S38Q/W56E/E61L	1.29 / 0.90 / 0.75 / 0.92 / 0.87 / 0.84	1/18 (3.04)
S25L/S28M/L30D/K36M/S38N/W56N	-0.32 / -0.38 / -0.44 / -0.56 / -0.30 / -0.42	0/18
S25L/S26V/S28Q/V29N/S38N/W56E/S62Q	0.06 / 0.09 / -0.03 / -0.13 / -0.11 / 0.15	1/18 (4.05)
S25V/S26E/Q27M/L30P/W56H/T59V	0.14 / -0.24 / -0.32 / -0.39 / -0.30 / -0.14	2/18 (2.80)
S25Q/S26Q/V29G/L30M/Y31M/K36Q/W56Q/E61L	0.43 / 0.43 / 0.75 / 0.55 / 0.45 / 0.64	1/18 (1.83)
S25I/V29Q/S33D/K36T/N37K/W56N/E61C	0.04 / 0.05 / -0.16 / -0.02 / 0.23 / -0.01	0/18
S25V/S26Y/Q27W/S28G/L30D/S33D/W56H/T59Q	0.58 / 0.99 / 0.96 / 0.54 / 0.43 / 0.80	1/18 (4.51)
S25L/V29W/E32Q/K36S/S38A/W56E/T59Q/S62Q/Q96D	0.00 / -0.10 / 0.32 / -0.07 / -0.04 / 0.01	1/18 (2.47)
S25V/V29H/L30P/S33E/K36D/S38N/W56N/T59Y	0.37 / 0.45 / 0.00 / 0.10 / 0.09 / 0.22	1/18 (4.35)
K24I/S25L/S26Q/S28L/V29M/N35M/W56N/T59Q/E61W	-0.19 / 0.72 / 0.25 / -0.02 / 1.03 / 1.15	2/18 (1.77)
S25Y/S28L/L30G/Y31E/W56N/S62E	0.15 / 0.14 / 0.14 / -0.11 / -0.12 / 0.03	0/18
S25V/Q27F/S28Q/L30W/E32S/W56D/S58N	0.26 / 0.08 / 0.24 / 1.26 / 0.81 / 0.44	2/18 (2.11)
S25L/V29W/E32G/S33Q/K36A/W56N/T59Q/S62E	-0.04 / -0.27 / -0.22 / -0.34 / -0.19 / -0.08	2/18 (3.22)
S25I/L30E/E32Q/S33A/K36Q/W56S/E61L	0.10 / 0.08 / -0.11 / 0.11 / -0.11 / 0.07	3/18 (2.37)
S25L/S26Q/Q27S/S28L/V29E/L30Q/S38N/W56S/E61S	-0.30 / -0.32 / -0.37 / -0.23 / -0.53 / -0.32	0/18
S25V/V29Q/S33W/K36M/W56N/S62M/S103V	0.59 / 0.52 / 0.38 / 0.38 / 0.58 / 0.60	1/18 (3.51)
S25L/S26Q/S28M/V29W/E32G/W56D/T59Q/S62E	0.04 / 0.00 / 0.03 / -0.23 / -0.27 / -0.14	0/18
S26P/Q27F/L30Y/E32G/S33D/N37M/W56S	0.89 / 0.59 / 0.32 / 0.72 / 0.73 / 0.68	3/18 (2.80)
S25I/S26D/L30E/N35D/W56N/S62Q	0.45 / -0.05 / 0.28 / 0.07 / 0.40 / 0.53	0/18
K24A/S25V/S26D/Q27F/V29H/W56N/S62Q	-0.28 / -0.09 / -0.46 / -0.61 / -0.28 / -0.52	0/18
S25V/S26Q/S28K/V29N/N35M/W56N/T59L	-0.10 / 0.09 / -0.25 / 0.04 / 0.15 / 0.26	1/18 (2.42)
S25L/S26Q/V29M/L30E/N35W/K36H/W56H/T59V/E61L/S62D	1.05 / 0.82 / 0.60 / 0.62 / 1.06 / 1.08	1/18 (2.91)
S25L/S26E/Q27G/L30E/N35W/W56H	0.20 / 0.28 / 0.24 / 0.18 / 0.53 / 0.35	1/18 (2.72)
S25V/V29E/L30W/N35M/W56N/T59Y/S62Q/S103Q	0.70 / 0.76 / 0.66 / 0.66 / 0.65 / 0.80	1/18 (2.09)
S25L/S26Q/Q27M/V29E/Y31P/T59L/S62T	0.90 / 0.67 / 0.30 / 0.33 / 0.47 / 0.54	0/18
S25L/S26P/Q27N/V29S/S38Q/W56S/T59E	0.56 / 0.28 / 0.35 / 0.31 / 0.18 / 0.46	4/18 (3.60)
S25V/Q27V/S28G/V29G/S33Q/N35Q/W56N/T59Y	0.60 / 0.05 / 0.33 / 0.00 / -0.01 / 0.27	1/18 (3.50)
S25A/N35V/W56D/T59M	nd / 1.31 / 0.65 / 0.85 / 0.38 / 1.68	0/18
S25L/V29E/K36D/W56S/E61C/S62E	0.58 / 0.25 / 0.15 / 0.08 / 0.05 / 0.30	0/18
S25L/V29W/L30E/K36S/W56N/S62T/S103A	0.24 / 0.20 / 0.44 / 0.31 / 0.20 / -0.10	0/18
S25V/V29E/E32G/N37W/W56N	0.90 / 0.73 / 0.63 / 0.82 / 0.64 / 0.75	5/18 (3.09)
S25I/S26E/V29M/L30E/K36V/W56N/S62V	0.30 / -0.07 / -0.23 / -0.05 / -0.06 / -0.03	1/18 (1.74)
S25L/S28G/Y31M/W56E/S58G/T59Q/S62E	-0.47 / -0.73 / -0.81 / -0.80 / -0.81 / -0.25	0/18
V29E/R34A/N35A/W56S/S58M/T59Q/E61M	0.45 / 0.11 / 0.07 / 0.24 / 0.40 / 0.59	3/18 (2.41)
S25M/S26Y/V29G/W56S/T59M	-0.31 / -0.08 / -0.11 / -0.35 / -0.07 / -0.16	3/18 (2.64)
S25L/S26D/Q27P/V29D/L30Q/Y31G/S38A/W56Q/S62I	0.18 / 0.24 / 0.24 / 0.17 / 0.28 / 0.11	2/18 (2.56)
S25V/S26Q/V29G/L30G/Y31M/E32L/W56H	1.00 / 0.35 / 1.26 / 0.47 / 0.52 / 0.72	1/18 (3.47)
S25L/S26Q/L30Q/S38A/W56Q/T59Q	-0.02 / -0.27 / -0.27 / -0.23 / -0.34 / 0.05	1/18 (4.16)
S25Q/S28L/V29G/E32G/W56E	1.21 / 1.11 / 0.79 / 2.01 / 1.98 / 1.89	0/18
S25V/S28Q/V29N/S33Q/K36F/S38N/W56N/T59Y	0.17 / -0.11 / -0.06 / -0.04 / -0.15 / -0.04	3/18 (3.16)
S25I/L30W/Y31M/R34C/K36V/S38N/W56N/S62D	0.61 / 0.51 / 0.66 / 0.62 / 0.42 / 0.70	3/18 (3.47)

The parent sequence was in this pool as ten entries: three were never detected, three once, and four in most replicates, with averages from 0.34 to 2.37.
In the paper, a design with two or fewer of six values counts as a poor binder.
The range of this assay differs from that of the first round, and the authors advise against merging the two.